Source: PubChem BioAssay (National Center for Advancing Translational Sciences (NCATS))
rTrxR1 inhibitor: inhibitors of rat thioredoxin reductase 1; Potency, µM (series often up to 114 µM), inactives show top-dose activity change, negative = inhibition, actives largely listed as inhibitors; hit rate 1% among 390,000; recombinant rTrxR1, NADPH fluorescence consumption, selenite substrate; also: potency is read from the fitted curve at half-maximal effect; % is scaled to controls: 0 for no effect and ±100 for the full control effect; nearly all actives have a fitted effect of over 65% in size
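Rat TrxR1 (90 nM in the dispensed reagent) was pre-reduced with 400 uM NADPH for 5 min at room temperature, then incubated with compound for 15 min. After 400 uM selenite was added, NADPH fluorescence (Ex 340/Em 450 nm) was followed for 8 min.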
GALK inhibitor: galactokinase (human) inhibition | P51570 | hit rate 0.007% among 270,000 | AID 1868 | Potency, µM (top dose mostly 57.5 µM), inactives show top-dose activity change, negative = inhibition, most hits filed as inhibitors | Purified GALK, Kinase-Glo residual ATP luminescence; also: potency is read from the fitted curve at half-maximal effect; % is scaled to controls: 0 for no effect and ±100 for the full control effect
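Quantitative HTS: GALK 5 nM, ATP 35 uM, galactose 100 uM, 1 h room temperature, then luciferase-based ATP detection.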
miR-21 reporter: miR-21 reporter, rising signal; HeLa miR-21 FLuc reporter, luciferase, 48 h; Potency, µM (doses to about 38.3 µM), for inactives: at the highest dose reporter change, positive = more light; 340,000 tested, under 10 active; AID 2288; active = well fitted rising curve with a large enough effect; inconclusive = small, poorly fitted or top-dose-only effect; inactive = no such curve, though single readings can be large or run the other way;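 further: % of control where 0% means no effect; miR-21 action dims this reporter so a rising signal means less miR-21 action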
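Luminescence from a firefly luciferase reporter carrying a miR-21 binding site downstream, stably expressed under a CMV promoter in HeLa cells that make miR-21 endogenously, reports miRNA modulation after 48 h compound exposure up to approximately 40uM final.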
TrxR1 substrate: rat thioredoxin reductase 1 substrate activity | purified TrxR1 substrate turnover, NADPH consumption readout | Potency, µM (titrated, usually from 114 µM), without a hit: at the top dose activity change, negative = substrate turnover | O89049 | hit rate 0.01% among 390,000; also: potency is read from the fitted curve at half-maximal effect; % is scaled to controls: 0 for no effect and ±100 for the full control effect; nearly all actives have a fitted effect of over 50% in size
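Rat TrxR1, dispensed at 90 nM, was prereduced with 400 uM NADPH (final) for 5 min at ~22 deg C, then incubated with compound 15 min before 400 uM selenite. A first-read NADPH fluorescence drop versus no-compound background flagged substrates.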
PINK1 modulator: modulators of PINK1 expression; PINK1 immunofluorescence, high-content cytometry, 24 h; Potency, µM (highest dose often 76.6 µM), without a hit: at the top dose activation (PINK1 increase), usual class: activators; hit rate 0.2% among 410,000; active = well fitted activation curve with a large enough effect; inconclusive = small, poorly fitted or top-dose-only effect; cell line not stated here; also: potency is read from the fitted curve at half-maximal effect; % of control where 0% means no effect; nearly all actives have a fitted effect of over 65% in size
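Measures PINK1 amount and localization on or inside mitochondria by immunofluorescence. Stable cells get compounds at 5 concentrations for 24 hours before fixation and staining; CCCP controls included.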
* = called active by the depositor; u = inconclusive; x = no result given; [ ] = another dose, or the depositor's remark. Shown are actives, neighbours in structure and some others; about 1.1% of the full set was active somewhere. Unless noted, calls follow the shape of the dose curve; as a rule, active = well fitted curve in the direction sought with a large enough effect; inconclusive = small, poorly fitted or top-dose-only effect, or another doubt; inactive = no such curve, though single readings can be large; an effect the other way counts as inactive or inconclusive.

item	Compound	rTrxR1 inhibitor	GALK inhibitor	miR-21 reporter
1	Cc1ccc(N2C(=O)CCSC23C(=O)N(Cc2ccccc2)c2ccccc23)cc1 (stereo not drawn)	28%	x	-2%
2	Clc1ccc(-n2cccc2CN2CCOc3ccc(CN4CCOCC4)cc3C2)nc1	x	x	x
3	COc1ccccc1NC(=S)NC(=O)Cc1ccccc1	-40%	x	x
4	COc1ccccc1NC(=S)NC(=O)C(C)(C)C	13µM*	3%	-11%
5	COC(=O)c1c(N2C(=O)CC(Sc3ccccc3C(=O)O)C2=O)sc2c1CCCC2 (stereo not drawn)	79µM*	6%	1%
6	COC(=O)c1c(N2C(=O)CC(Sc3ccccc3C(=O)O)C2=O)sc(C)c1C (stereo not drawn)	u	0%	-2%
7	O=C(O)c1ccccc1SC1CC(=O)N(C2CCCCC2)C1=O (stereo not drawn)	79µM*	-1%	-10%
8	Cc1c(C(=O)N(Cc2ccc(N(C)C)cc2)CC2CCCO2)oc2ccc(Cl)cc12 (stereo not drawn)	1%	x	-2%
9	Cc1ccccc1CC1(CO)CCCN(C(=O)c2ccoc2)C1 (stereo not drawn)	x	x	x
10	COc1ccc(C(=O)N2CCCC(CO)(Cc3ccccc3C)C2)o1 (stereo not drawn)	50µM*	0%	-12%
11	CCOC(=O)N1CCN(C(=O)c2ccc3c(c2)NC(=O)/C(=C\c2ccc(OC)c(OC)c2)S3)CC1	25µM*	7%	-2%
12	COc1ccc(/C=C2/Sc3ccc(C(=O)N4CCOCC4)cc3NC2=O)cc1OC	11%[57.1 µM]	9%	0%

item	TrxR1 substrate	PINK1 modulator
1	7%	1%
2	x	0%
3	7%[57.1 µM]	4%
4	1%	28%[38.3 µM]
5	3%	0%
6	6%[57.1 µM]	2%
7	3%	3%
8	2%	1%
9	x	1%
10	0%	2%
11	-6%	1%
12	-6%[57.1 µM]	2%

item	Compound	rTrxR1 inhibitor	GALK inhibitor	miR-21 reporter
13	Cc1nc(SCC(=O)Nc2ccccc2F)[nH]c(=O)c1Cc1ccccc1	9%	x	-5%
14	CCOC(=O)c1c(-c2ccc(C)o2)csc1NC(=O)CN1CCCCC1	-59%	0%	-7%
15	CCOC(=O)c1c(-c2ccc(C)o2)csc1NC(=O)CSc1nncs1	2.2µM*	-2%	-11%
16	CCOC(=O)c1c(-c2ccc(C)o2)csc1NC(=O)CN1CCN(CC)CC1	4.5µM*	1%	-9%
17	COc1cccc(C(c2c(O)nc(SC)n(C)c2=O)c2c(O)nc(SC)n(C)c2=O)c1	u	2%	0%
18	CCCSc1nc(O)c(C(c2ccc(OC)c(O)c2)c2c(O)nc(SCCC)n(C)c2=O)c(=O)n1C	11µM*	1%	-3%
19	CCOCCc1nn2c(=O)cc(COC(=O)c3ccccc3NC(=O)c3ccc(C)cc3)nc2s1	11%[57.1 µM]	x	-18%
20	CCOC(=O)c1cc(OC(=O)c2cccs2)n(-c2ccccc2)n1	22µM*	-4%	-1%
21	O=[N+]([O-])c1cc(F)c2cccnc2c1O	45µM*	x	27%
22	O=[N+]([O-])c1cc(Cl)c2cccnc2c1O	-6%[57.1 µM]	-1%	u
23	CCN(C(=O)c1cc2c(Cl)nc3ccc(C)cc3c2s1)c1cc(OC)ccc1OC	9%	x	-1%
24	CC(C)(C)NC(=O)C(c1ccco1)N(C(=O)Cn1nnc(-c2ccc(F)cc2)n1)c1cccc(F)c1 (stereo not drawn)	19%	-2%	-3%

item	TrxR1 substrate	PINK1 modulator
13	3%	0%
14	9%[57.1 µM]	u
15	1%[57.1 µM]	3%[38.3 µM]
16	7%	-7%[38.3 µM]
17	-5%	1%
18	9%[57.1 µM]	1%
19	6%[57.1 µM]	3%
20	4%	-3%[38.3 µM]
21	-15%	1%
22	-9%[57.1 µM]	6%
23	0%	4%
24	2%	13µM*

Filtered by structure, the compounds so far with two or more sulfur atoms.
item	Compound	rTrxR1 inhibitor	GALK inhibitor	miR-21 reporter
5	COC(=O)c1c(N2C(=O)CC(Sc3ccccc3C(=O)O)C2=O)sc2c1CCCC2 (stereo not drawn)	79µM*	6%	1%
6	COC(=O)c1c(N2C(=O)CC(Sc3ccccc3C(=O)O)C2=O)sc(C)c1C (stereo not drawn)	u	0%	-2%
15	CCOC(=O)c1c(-c2ccc(C)o2)csc1NC(=O)CSc1nncs1	2.2µM*	-2%	-11%
17	COc1cccc(C(c2c(O)nc(SC)n(C)c2=O)c2c(O)nc(SC)n(C)c2=O)c1	u	2%	0%
18	CCCSc1nc(O)c(C(c2ccc(OC)c(O)c2)c2c(O)nc(SCCC)n(C)c2=O)c(=O)n1C	11µM*	1%	-3%

item	TrxR1 substrate	PINK1 modulator
5	3%	0%
6	6%[57.1 µM]	2%
15	1%[57.1 µM]	3%[38.3 µM]
17	-5%	1%
18	9%[57.1 µM]	1%

Going on with the list:
item	Compound	rTrxR1 inhibitor	GALK inhibitor	miR-21 reporter
25	CCCCCCc1cc2cc(S(=O)(=O)c3ccc(F)c(Cl)c3)c(=O)oc2cc1O	-16%	-1%	-6%
26	CCCCCCc1cc2cc(C(=O)Nc3ccc(OC)cc3)c(=O)oc2cc1O	-6%	-2%	-9%
27	CCCCCCc1cc2cc(C(=O)Nc3cccc(OC)c3)c(=O)oc2cc1O	1%	1%	-4%
28	CCCCCCc1cc2cc(C(=O)OCC)c(=O)oc2cc1O	u	5%	-3%
29	Cc1cccc2sc(NNC(=O)c3ccc(S(=O)(=O)N4CC(C)CC(C)C4)cc3)nc12 (stereo not drawn)	12%[57.1 µM]	x	29%
30	Cc1cc(C)c2nc(NNC(=O)c3ccc(S(=O)(=O)N4CC(C)CC(C)C4)cc3)sc2c1 (stereo not drawn)	11%[57.1 µM]	x	18%
31	COC(=O)C1=C(C)N(c2ccc(OC)c(OC)c2)C(=O)/C1=C\c1ccco1	28µM*	-1%	-1%
32	O=C(CCl)N(c1ccccc1)C1CCCCC1	3.2µM*	-3%	u
33	O=[N+]([O-])c1ccc(/C=C/c2ccnc3ccccc23)c([N+](=O)[O-])c1	5%	x	x
34	Cc1ccc(OC(=O)COc2ccccc2C)cc1	26%	-3%	-1%
35	CC(=O)c1ccc(OC(=O)COc2ccccc2Cl)cc1	18µM*	0%	0%
36	O=C(Nc1nc2c(F)cc(F)cc2s1)C1CC(=O)N(Cc2ccco2)C1 (stereo not drawn)	50µM*	-16%	-11%

item	TrxR1 substrate	PINK1 modulator
25	25%	13µM*
26	-12%	40µM*
27	0%	u
28	140%	u
29	2%[57.1 µM]	40µM*
30	-4%[57.1 µM]	11%
31	0%	2%
32	14%[57.1 µM]	-1%
33	3%	-1%
34	11%	1%
35	2%	3%
36	6%	1%

item	Compound	rTrxR1 inhibitor	GALK inhibitor	miR-21 reporter
37	CC(C)n1c(NCc2ccc(N(C)C)cc2)nc2ccccc21	13%[57.1 µM]	-1%	-15%
38	CCN(CC)c1ccc(CNc2nc3ccccc3n2C(C)C)cc1	-3%[57.1 µM]	1%	0%
39	Cc1cccc(NC(=O)c2c(NC(=O)C(F)(F)F)sc3c2CCCCC3)c1	-3%	x	u
40	O=C(Nc1cccc(Cl)c1)c1c(NC(=O)C(F)(F)F)sc2c1CCCC2	-17%	x	15%
41	CC(C)C(=O)Nc1cccc(S(=O)(=O)NC2=NCCC2)c1	x	x	x
42	O=C(CCl)Nc1cccc(S(=O)(=O)NC2=NCCC2)c1	28µM*	-2%	u
43	Cc1ccc(NC(=O)c2nc(S(=O)(=O)Cc3ccccc3C)ncc2Cl)cc1C	32µM*	3%	u
44	NS(=O)(=O)c1ccc(NC(=O)c2nc(S(=O)(=O)Cc3ccccc3F)ncc2Cl)cc1	3.5µM*	x	x
45	CSc1ncc(Cl)c(C(=O)Nc2ccc(C)c(C)c2)n1	23%	2%	-5%
46	Cc1ccccc1NC(=O)c1nc(S(=O)(=O)Cc2ccccc2F)ncc1Cl	3.5µM*	x	x
47	Cc1ccc(NC(=O)c2nc(S(=O)(=O)Cc3ccccc3F)ncc2Cl)cc1C	3.2µM*	x	x
48	COc1cccc(Nc2nc3ccc(C(=O)c4ccccc4)cc3n3c(C)nnc23)c1	5%	x	-1%
49	Cc1cccc(-c2ccc3[nH]c4c(c3c2)CCN2C[C@@H]([C@H](C)OC(=O)Nc3ccccc3C)[C@@H](N(C)C(=O)Nc3ccccc3C)C[C@@H]42)c1	x	x	x

item	TrxR1 substrate	PINK1 modulator
37	10%[57.1 µM]	1%
38	-7%[57.1 µM]	22µM*
39	2%	u
40	-7%	40µM*
41	x	1%
42	4%	3%
43	1%	-2%
44	4%	1%
45	4%	2%
46	19%	5%
47	-6%	4%
48	0%	-2%
49	x	13%
